Source: PMC9414551 (Pharmaceuticals, 2022)

Tested on: NMDAR
Conditions: rat cortical membranes; for IC50: [3H]TCP 4 nM; for Ki: [3H]TCP, Cheng and Prusoff

| SMILES | IC50 [nM] | Ki [nM] |
| --- | --- | --- |
| C[C@]12N[C@H](Cc3ccccc31)c1ccccc12 [MK-801, dizocilpine] | 3.52 | 2.39 |
| CC12CC3CC(C)(C1)CC(N)(C3)C2 [Memantine, memantine] | 790 | 530 |
